# Source: PubChem BioAssay AID636 (SRMLSC, 2007)
# Only a part is listed here, and it is no random draw. Some results for these compounds are left out of this collection, so the calls shown say nothing about other tests. Active and inactive are the calls of the source. Cut-off read from the data, not from the text of the source: active = inhibition above about 31%; inactive = the rest.
# Experiment: yeast transport mutant growth inhibition pilot in 384-well plates, post-Golgi transport modulator project (AID 636)
# Settings: absorbance 615 nm, about 18 h, stronger effect = higher value
row,SMILES,inhibition
1,O=C(OC1CN2CCC1CC2)C(CO)(c1ccccc1)c1ccccc1 (stereo unspecified),inactive: -7.2%
